For one compound, Ratio IC50 results are on record in ChEMBL document CHEMBL5338724, “METTL3 from Target Validation to the First Small-Molecule Inhibitors: A Medicinal Chemistry Journey” (J Med Chem, 2023).

The assay can be described thus: Selectivity ratio of IC50 for inhibition of METTL3/METTL14 (unknown origin) to IC50 for inhibition of PRMT5/MEP50 (unknown origin).

As for `Cn1ccc(-c2cn([C@@H]3O[C@H](COc4ccc5ccc(N6CCC6)nc5c4)[C@@H](O)[C@@H]3F)c3ncnc(N)c23)n1`, the Ratio IC50 was more than 100.
